Protein sequences, listed by entry. Tags and fused reporters are not part of them.
UniProt P30542, whole entry: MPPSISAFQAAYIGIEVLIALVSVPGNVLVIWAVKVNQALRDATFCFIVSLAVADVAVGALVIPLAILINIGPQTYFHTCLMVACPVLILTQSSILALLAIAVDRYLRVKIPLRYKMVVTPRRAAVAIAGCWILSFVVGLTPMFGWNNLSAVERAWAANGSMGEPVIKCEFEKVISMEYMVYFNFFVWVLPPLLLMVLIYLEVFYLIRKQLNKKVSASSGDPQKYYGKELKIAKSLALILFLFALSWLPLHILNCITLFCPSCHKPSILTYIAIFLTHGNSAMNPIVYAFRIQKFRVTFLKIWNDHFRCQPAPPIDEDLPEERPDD

In ChEMBL document CHEMBL5042528, “Optimization of 2-Amino-4,6-diarylpyrimidine-5-carbonitriles as Potent and Selective A1 Antagonists” (J Med Chem, 2022):

molecular target: Adenosine receptor A1 (Homo sapiens, UniProt P30542); assay: Displacement of [3H]DPCPX from human A1AR expressed in CHO cell membrane at 1 uM incubated for 60 mins by microbeta trilux scintillation counter analysis relative to control; format: cell membranes

| SMILES | Activity [%] |
| --- | --- |
| CNc1nc(-c2cccc(Cl)c2)c(C#N)c(-c2cc(Cl)cc(Cl)c2)n1 | 10 |
| CNc1nc(-c2ccccc2)c(C#N)c(-c2cc(F)cc(F)c2)n1 | 16 |
| N#Cc1c(-c2ccccc2)nc(Nc2ccccc2)nc1-c1ccncc1 | 30 |
| N#Cc1c(-c2ccccc2)nc(Nc2ccccc2)nc1-c1cccnc1 | 23 |
| COc1ccc(-c2nc(Nc3ccccc3)nc(-c3ccccc3)c2C#N)cc1 | 24 |
| N#Cc1c(-c2ccccc2)nc(N)nc1C1CCCC1 | 10 |
| CNc1nc(-c2ccccc2)c(C#N)c(C2CCCCC2)n1 | 2 |
| N#Cc1c(-c2ccccc2)nc(Nc2ccccc2)nc1-c1cccc(F)c1 | 1 |
| N#Cc1c(-c2ccccc2)nc(Nc2ccccc2)nc1-c1ccsc1 | 9 |
| CN(C)c1nc(-c2ccccc2)c(C#N)c(-c2ccc(F)cc2)n1 | 12 |
| CNc1nc(-c2ccccc2)c(C#N)c(-c2ccc(Br)cc2)n1 | 12 |
| CN(C)c1nc(-c2ccccc2)c(C#N)c(-c2ccccc2)n1 | 8 |
| N#Cc1c(-c2ccccc2)nc(Nc2ccccc2)nc1-c1ccc(F)cc1F | 1 |
| N#Cc1c(-c2ccccc2)nc(Nc2ccccc2)nc1-c1ccc(O)cc1 | 4 |
| N#Cc1c(-c2ccccc2)nc(N)nc1C1CCCCC1 | 20 |
| CNc1nc(-c2ccccc2)c(C#N)c(-c2cccs2)n1 | 18 |
| COc1cc(OC)cc(-c2nc(Nc3ccccc3)nc(-c3ccccc3)c2C#N)c1 | 10 |
| N#Cc1c(-c2ccccc2)nc(Nc2ccccc2)nc1-c1ccc(Br)cc1 | 5 |

Now from value to compound:

| Activity [%] | SMILES |
| --- | --- |
| 22 | N#Cc1c(-c2ccccc2)nc(Nc2ccccc2)nc1-c1cccc(Cl)c1 |
| 5 | N#Cc1c(-c2ccccc2)nc(N)nc1-c1ccccc1Cl |
| 2 | N#Cc1c(-c2cccc(Cl)c2)nc(Nc2ccccc2)nc1-c1cc(Cl)cc(Cl)c1 |
| 13 | N#Cc1c(-c2cccc(Cl)c2)nc(Nc2ccccc2)nc1-c1cccc(Cl)c1 |
| 35 | N#Cc1c(-c2ccccc2)nc(N)nc1-c1ccc(Cl)cc1Cl |
| 27 | N#Cc1c(-c2ccccc2)nc(N)nc1-c1cc(F)cc(F)c1 |
| 6 | CNc1nc(-c2cccc(Cl)c2)c(C#N)c(-c2cccc(Cl)c2)n1 |
| 2 | CNc1nc(-c2ccccc2)c(C#N)c(-c2ccccc2Cl)n1 |
| 16 | N#Cc1c(-c2ccccc2)nc(Nc2ccccc2)nc1-c1ccccc1Cl |
| 8 | N#Cc1c(-c2ccccc2)nc(Nc2ccccc2)nc1-c1cc(Cl)cc(Cl)c1 |
| 17 | CNc1nc(-c2ccccc2)c(C#N)c(-c2ccccc2OC)n1 |
| 11 | CN(C)c1nc(-c2ccccc2)c(C#N)c(-c2cccc(Cl)c2)n1 |
